# Assay: Solubility / dissolution testing
# Details: room temperature
substance,measurement,value
magnesium acetate thiodipropionate [MgAcTDPA],aqueous solubility,unlimited aqueous solubility

# Source: patent US10934439B2, “Additives for coating compositions and related methods” (Massachusetts Institute of Technology, priority 2017, dated 2021)
